# PubChem BioAssay AID2544 (Sanford-Burnham Center for Chemical Genomics, 2010)
# Chains of the proteins cited; added tags and fusions are not shown.
# UniProt P09923, whole entry: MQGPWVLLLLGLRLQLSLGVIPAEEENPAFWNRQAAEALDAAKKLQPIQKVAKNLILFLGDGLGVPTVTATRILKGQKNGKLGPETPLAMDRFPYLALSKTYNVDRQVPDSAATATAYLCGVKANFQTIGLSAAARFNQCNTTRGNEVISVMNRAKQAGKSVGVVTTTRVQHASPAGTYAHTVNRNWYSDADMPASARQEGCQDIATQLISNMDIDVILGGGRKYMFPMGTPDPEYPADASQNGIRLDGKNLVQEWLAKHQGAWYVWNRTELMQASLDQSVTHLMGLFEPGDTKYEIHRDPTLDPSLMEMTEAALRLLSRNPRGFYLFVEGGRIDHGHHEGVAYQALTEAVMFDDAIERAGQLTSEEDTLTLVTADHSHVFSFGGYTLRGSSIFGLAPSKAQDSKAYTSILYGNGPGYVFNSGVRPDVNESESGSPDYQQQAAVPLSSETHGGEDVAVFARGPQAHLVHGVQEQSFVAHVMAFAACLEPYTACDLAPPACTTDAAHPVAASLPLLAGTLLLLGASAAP
# The entries are a selection whose mix differs from that of the whole data set. Some results for these compounds are left out of this collection, so the calls shown say nothing about other tests. Active and inactive are the calls of the source.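 The calls were made as follows: active = inhibition reaching a set limit with compound at 10 µM in the primary screen (cut at about 35% in these data); inactive = the rest.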
# Target: Intestinal-type alkaline phosphatase (Homo sapiens) (UniProt P09923)
# Assay: blockers of intestinal alkaline phosphatase activity – biochemical, luminescence, uHTS, primary screen (AID 2544);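 also: plate controls were DMSO wells with enzyme for no effect and no-enzyme buffer wells for full effect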
# Conditions: purified IAP, CDP-Star luminescence, 30 min; at 10 µM; active compounds read high
row,SMILES,inhibition
1,CN(C)C1(CNC(=O)c2ccc(Br)cc2)CCCCC1,inactive: -9.7%
2,COc1cc(C(=O)NCC2(N(C)C)CCCCC2)c([N+](=O)[O-])cc1OC,inactive: -11.9%
3,COc1cccc(C(=O)NCC2(N3CCCCC3)CCCCC2)c1,inactive: 2.8%
4,COc1ccc(Cl)cc1C(=O)NCC1(N(C)C)CCCCC1,inactive: -3.9%
5,O=C(NCC1(N2CCCCC2)CCCCC1)c1cccc(Cl)c1,inactive: -1.2%
6,O=C(OC1CN2CCC1CC2)C(CO)(c1ccccc1)c1ccccc1 (centres undefined),inactive: 3.9%
7,COc1ccc(Br)c(C(=O)NCC2(N3CCCCC3)CCCCC2)c1,inactive: -2.4%
8,CN(C)c1cccc(C(=O)NCC2(N(C)C)CCCCC2)c1,inactive: -8.9%
9,CC(C)Oc1ccc(C(=O)NCC2(N(C)C)CCCCC2)cc1,inactive: -14.2%
10,O=C(NCC1(N2CCCCC2)CCCCC1)c1cc([N+](=O)[O-])ccc1Cl,inactive: 1.8%
11,CN1[C@@H]2CC[C@H]1CC(OC(=O)C(O)(c1ccccc1)c1ccccc1)C2 (some centres undefined),inactive: 13.4%
12,CC(C)N1C(=O)CC2(CCN(CCOC(=O)C(O)(c3ccccc3)c3ccccc3)CC2)C1=O,inactive: 28.7%
13,CCN(CC)CC(C)C(C)OC(=O)C(O)(c1ccccc1)c1ccccc1 (centres undefined),inactive: -2.1%
14,COc1cc(SC)ccc1C(=O)NCC1(N(C)C)CCCCC1,inactive: -6.7%
15,Cc1ccc(C(=O)NCC2(N3CCCCC3)CCCCC2)cc1,inactive: 8%
16,Cc1ccccc1C(=O)NCC1(N2CCCCC2)CCCCC1,inactive: -2%
17,CN(C)C1CCCC1OC(=O)C(O)(c1ccccc1)c1ccccc1 (centres undefined),inactive: -3.9%
18,CN(C)c1ccc(C(=O)NCC2(N(C)C)CCCCC2)cc1,inactive: -9.3%
19,C=CCN1CCN(CCOC(=O)C(O)(c2ccccc2)c2ccccc2)CC1,inactive: -5.1%
20,O=C(NCC1(N2CCCCC2)CCCCC1)c1cc(F)c(F)cc1Cl,inactive: -1.8%
21,Cc1cc(C(=O)NCC2(N3CCCCC3)CCCCC2)ccc1[N+](=O)[O-],inactive: 8.1%
22,CCN1CCCC(OC(=O)C2(O)c3ccccc3C=Cc3ccccc32)C1 (centres undefined),inactive: 1.1%
23,O=C(NCC1(N2CCCCC2)CCCCC1)c1cccc(Br)c1,inactive: -29.6%
24,COc1ccc(C(=O)NCC2(N(C)C)CCCCC2)cc1,inactive: 6.2%
